Laboratory results published in paper PMC7150870 (Toxins, 2020).

Test: in vitro
Settings: human (HepG2, Caco-2, HEK 293T); mouse (RAW 264.7)

For `CC1=C[C@H]2O[C@@H]3[C@H](O)C[C@](C)([C@@]2(CO)[C@H](O)C1=O)[C@]31CO1` [DON, deoxynivalenol], the IC50 was greater than 50 nM.
